These are literature values, as cited in patent US6646013B1, “Nutrient formulations for disease reduction” (Nutri-Logics, priority 1999, dated 2003).

With `[Se]` [selenium], for the setting “estimated”, the “human maximum tolerated dose (MTD) of dietary selenium” value is on record as 819 μg selenium/day. The “range of safety between physiological and toxic levels” value (humans) was 10 fold. Also, the “MTD as multiple of the RDA” value (in vivo) is on record as 15 times the RDA.
